Experimental findings from patent publication US10670609B2, “Ytterbium as a surrogate cation to measure calcium flux” (Government of the United States, as represented by the …, priority 2017, dated 2020) are described below.

A short description of the series: Solubility observations during preparation. As to conditions: about 50° C. to about 70° C.; water as solvent for some tests.

Turning to ytterbium (II) iodide, the “solubility, effect of cyclodextrin inclusion and heating” value is “increased”.
